According to ChEMBL document CHEMBL1811860, “Synthesis and inhibitory activity of sialic acid derivatives targeted at viral sialate-O-acetylesterases” (Eur J Med Chem, 2011):

Assay: Inhibition of Influenza C virus C/JJ/50 9-SOAE expressed in Sf9 cells assessed as inhibition of hydrolysis of pNPA at 2 mM

**Q.** For `C=CCO[C@]1(C(=O)O)C[C@H](O)[C@@H](NC(C)=O)[C@H]([C@H](O)[C@H](O)COC)O1`, which inhibition is on record?
**A.** 7.05%
